Laboratory results reported in patent US20220041674A1 (published 2022).
pIC50: −log10 of the molar value.

Sequences of proteins named here, by UniProt entry; tags and fusion partners are left off.
UniProt P61073, whole entry: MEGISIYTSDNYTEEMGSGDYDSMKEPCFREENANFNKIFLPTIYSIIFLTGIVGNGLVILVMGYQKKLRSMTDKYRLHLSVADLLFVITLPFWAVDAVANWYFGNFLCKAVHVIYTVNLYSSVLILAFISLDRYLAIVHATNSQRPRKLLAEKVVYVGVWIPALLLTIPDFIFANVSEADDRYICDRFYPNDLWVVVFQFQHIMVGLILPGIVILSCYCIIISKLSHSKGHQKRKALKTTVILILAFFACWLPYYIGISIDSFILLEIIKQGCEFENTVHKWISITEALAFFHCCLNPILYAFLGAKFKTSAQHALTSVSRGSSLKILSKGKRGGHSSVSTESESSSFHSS
UniProt P70658, whole entry: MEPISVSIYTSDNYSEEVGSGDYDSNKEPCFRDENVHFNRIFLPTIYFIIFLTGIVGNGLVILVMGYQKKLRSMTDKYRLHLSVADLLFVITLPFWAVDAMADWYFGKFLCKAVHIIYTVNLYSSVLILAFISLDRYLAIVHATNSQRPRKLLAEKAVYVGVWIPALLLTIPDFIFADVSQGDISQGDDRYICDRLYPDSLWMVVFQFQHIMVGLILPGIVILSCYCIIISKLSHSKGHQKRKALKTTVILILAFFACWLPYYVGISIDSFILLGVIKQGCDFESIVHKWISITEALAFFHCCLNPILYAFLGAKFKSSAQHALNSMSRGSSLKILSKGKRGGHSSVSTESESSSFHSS

How the values were obtained:
[1] = target: human chemokine receptor 4 (CXCR4) (human) (UniProt P61073); test: competitive radioligand binding on Jurkat cells (400.000 cells/sample), [125I]FC-131
[2] = target: human chemokine receptor 4 (CXCR4) (human) (UniProt P61073); test: competitive radioligand binding on Jurkat cells, [125I]FC131 0.1 nM, 2 h RT
[3] = target: T1, murine chemokine receptor 4 (CXCR4) (murine, UniProt P70658 1-359); test: competitive radioligand binding on Eµ-Myc1080 mouse B-cell lymphoma cells, [125I]CPCR4.3
T1 construct: whole, on cells; receptor present on whole cells; also called mCXCR4; mouse CXCR4
Description: To be able to assess the effect of structural modifications in the SAR study on CXCR4 binding affinity, data for ^natGa-pentixafor (^natGa-3) and ^natLu-pentixather (^natLu-4) are also included in Table 1a.
Binding assays were performed using Jurkat cells (400,000/well) and ([¹²⁵I]FC131) (c = 0.1 nM) as the radioligand for hCXCR4 and Eμ-Myc1080 mouse B-cell lymphoma cells and [¹²⁵I]CPCR4.3 as radioligand. Cells were incubated in HBSS (1% BSA) at RT for 2 h. Data are expressed as mean ± SD (n = 3). ^{[a]}4-aminobenzoic acid spacer is substituted by 4-aminomethylbenzoic acid (see FIG. 1 (5-16), ^{[b]}(R)-2,3-diaminopropanoic acid.

[4] = target: T1, murine chemokine receptor 4 (CXCR4); test: competitive radioligand binding on Eµ-Myc1080 cells (200.000 cells/sample), [125I]CPCR4.3; metal complex not stated in this table (natLu taken from Table 1a)

Substance	pIC50 [1]	pIC50 [2]	pIC50 [3]	pIC50 [4]
cyclo[i-yorn′([natLu]DOTA-rG-(4-amino)benzoyl-)RNaIG ([natLu]P4) (peptide)	8.68	8.68	7.43	7.31
cyclo[i-yorn′([natGa]DOTA-ra-(4-amino)benzoyl-)RNaIG ([natGa]P5) (peptide)	8.59	8.59		
^natLu-pentixather, natLu complex of cyclo(D-3-iodo-Tyr1-D-[NMe]Orn2(AMBS-DOTA)-Arg3-Nal4-Gly5) (peptide)		7.84	6.25	
cyclo[i-yorn′([natY]DOTA-ra-(4-amino)benzoyl-)RNaIG ([natY]P5) (peptide)	8.80			
cyclo[i-yorn′([natLu]DOTA-kG-(4-amino)benzoyl-)RNaIG ([natLu]P3) (peptide)			7.21	7.43
cyclo[i-yorn′(AMBF3(methyl(1H-1,2,3-triazol-4-yl)-rG-4-amino)benzoyl-)RNaIG] (F3) (peptide)	8.54			
cyclo[i-yorn′([natLu]DOTA-dapG-(4-amino)benzoyl-)RNaIG ([natLu]P2) (peptide)	8.46	8.46		
cyclo[yorn′([natLu]DOTA-ra-(4-amino)benzoyl-)RNaIG ([natLu]P5b) (peptide)	8.82	8.82		

Other lines, results leading:

pIC50 [1]	pIC50 [2]	pIC50 [3]	pIC50 [4]	Substance
8.46				cyclo[i-yorn′([natBi]DOTA-dapG-(4-amino)benzoyl-)RNaIG ([natBi]P2) (peptide)
8.68				cyclo[i-yorn′([natY]DOTA-rG-(4-amino)benzoyl-)RNaIG ([natY]P4) (peptide)
8.77	8.77	7.31	7.21	cyclo[i-yorn′([natLu]DOTA-ra-(4-amino)benzoyl-)RNaIG ([natLu]P5) (peptide)
8.85	8.85			cyclo[i-yorn′([natGa]DOTA-rG-(4-amino)benzoyl-)RNaIG ([natGa]P4) (peptide)
8.74				cyclo[i-yorn′([natBi]DOTA-ra-(4-amino)benzoyl-)RNaIG ([natBi]P5) (peptide)
	8.21			^natGa-pentixather, natGa complex of cyclo(D-3-iodo-Tyr1-D-[NMe]Orn2(AMBS-DOTA)-Arg3-Nal4-Gly5) (peptide)
8.54				cyclo[i-yorn′([natBi]DOTA-rG-(4-amino)benzoyl-)RNaIG ([natBi]P4) (peptide)
